Data as given in US12478617B2, “Lipidated peptide inhibitors of interleukin-23 receptor” (JANSSEN BIOTECH, INC., priority 2021, dated 2025).

Biological target: T1, IL-23R (Homo sapiens, UniProt Q5VWK5)
T1 construct: HEK293 cells containing IL-23R, IL-12RP31 and a firefly luciferase reporter gene driven by a STAT-inducible promoter (Promega); host or cells: HEK293
T1 sequence (Q5VWK5 24-629): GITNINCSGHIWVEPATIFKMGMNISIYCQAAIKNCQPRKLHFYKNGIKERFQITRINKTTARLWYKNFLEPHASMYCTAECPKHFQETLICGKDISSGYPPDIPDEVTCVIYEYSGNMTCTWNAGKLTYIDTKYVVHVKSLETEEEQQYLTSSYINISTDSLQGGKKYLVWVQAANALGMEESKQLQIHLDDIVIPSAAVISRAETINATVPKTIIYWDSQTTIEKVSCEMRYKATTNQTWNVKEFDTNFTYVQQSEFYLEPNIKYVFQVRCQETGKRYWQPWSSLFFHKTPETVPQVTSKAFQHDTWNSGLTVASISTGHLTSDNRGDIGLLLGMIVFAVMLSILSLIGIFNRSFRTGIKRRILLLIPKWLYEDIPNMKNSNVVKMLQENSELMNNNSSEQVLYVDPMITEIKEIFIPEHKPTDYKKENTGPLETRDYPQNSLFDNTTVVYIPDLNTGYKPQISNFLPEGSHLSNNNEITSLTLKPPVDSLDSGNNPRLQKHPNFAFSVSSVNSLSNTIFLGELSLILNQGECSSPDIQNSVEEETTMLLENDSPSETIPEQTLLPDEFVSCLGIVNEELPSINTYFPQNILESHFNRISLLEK
Experiment: IL23R Reporter Assay
Format: cell-based
Settings: HEK293 cells containing IL-23R, IL-12Rβ1 and STAT-inducible firefly luciferase reporter; 10 ng/mL IL-23 (EC90); 5 h at 37° C.

Row | Molecule | IC50 [nM]
1 | MeCO-K(GolAC16)-Pen*-N-T-7MeW-K(Ac)-Pen*-AEF-2Nal-THP-K(Ac)-N-3Pya-Sar-CONH2 [Example 135] | 0.016
2 | MeCO-K(PEG2 SP6 PEG2 gE C18OH)-Pen*-N-T-7MeW-K(Ac)-Pen*-AEF-2Nal-THP-K(Ac)-N-3Pya-Sar-CONH2 [Example 131] | 0.021
3 | MeCO-K(PEG2PEG2 C18OH)-Pen*-N-T-7MeW-K(Ac)-Pen*-AEF-2Nal-THP-K(Ac)-N-3Pya-Sar-CONH2 [Example 62] | 0.054
4 | MeCO-K(PEG2PEG2 GolAC18OH)-Pen*-N-T-7MeW-K(Ac)-Pen*-AEF-2Nal-THP-K(Ac)-N-3Pya-Sar-CONH2 [Example 138] | 0.039
5 | MeCO-K(PEG2PEG2 gE C18OH (C)-Pen*-N-T-7MeW-K(Ac)-Pen*-AEF-2Nal-THP-K(Ac)-N-3Pya-Sar-CONH2 [Example 142] | 0.0092
6 | MeCO-K(PEG2PEG2 gE C18OH(c)-Pen*-N-T-7MeW-K(Ac)-Pen*-AEF-2Nal-THP-K(Ac)-N-3Pya-Sar-CONH2 [Example 139] | 0.0079
7 | MeCO-K(PEG2PEG2 gE SP6 C18OH)-Pen*-N-T-7MeW-K(Ac)-Pen*-AEF-2Nal-THP-K(Ac)-N-3Pya-Sar-CONH2 [Example 130] | 0.02
8 | MeCO-K(PEG2PEG2C18GolB)-Pen*-N-T-7MeW-K(Ac)-Pen*-AEF-2Nal-THP-K(Ac)-N-3Pya-Sar-CONH2 [Example 140] | 0.012
9 | MeCO-K(PEG2PEG2PPPgEC18OH)-Pen*-N-T-7MeW-K(Ac)-Pen*-AEF-2Nal-THP-K(Ac)-N-3Pya-Sar-CONH2 [Example 103] | 0.066
10 | MeCO-K(PEG2PEG2PgEC18OH)-Pen*-N-T-7MeW-K(Ac)-Pen*-AEF-2Nal-THP-K(Ac)-N-3Pya-Sar-CONH2 [Example 101] | 0.066
11 | MeCO-K(PEG2PEG2TrxgEC18OH)-Pen*-N-T-7MeW-K(Ac)-Pen*-AEF-2Nal-THP-K(Ac)-N-3Pya-Sar-CONH2 [Example 109] | 0.056
12 | MeCO-K(PEG2PEG2gEC10OH)-Pen*-N-T-7MeW-K(Ac)-Pen*-AEF-2Nal-THP-K(gEC18)-N-3Pya-Sar-CONH2 [Example 127] | 0.17
13 | MeCO-K(PEG2PEG2gEC16)-Pen*-N-T-7MeW-K(Ac)-Pen*-AEF-2Nal-THP-K(Ac)-N-3Pya-Sar-CONH2 [Example 81] | 0.012
14 | MeCO-K(PEG2PEG2gEC16OH)-Pen*-K(PEG2PEG2gEC16OH)-T-7MeW-K(Ac)-Pen*-AEF-2Nal-THP-K(Ac)-N-3Pya-Sar-CONH2 [Example 76] | 0.18
15 | MeCO-K(PEG2PEG2gEC16OH)-Pen*-N-T-7MeW-K(Ac)-Pen*-AEF-2Nal-THP-K(Ac)-N-3Pya-Sar-CONH2 [Example 25] | 0.0078
16 | MeCO-K(PEG2PEG2gEC16OH)-Pen*-N-T-7MeW-K(Ac)-Pen*-AEF-2Nal-THP-K(gEC18)-N-3Pya-Sar-CONH2 [Example 120] | 0.38
17 | MeCO-K(PEG2PEG2gEC18)-Pen*-N-T-7MeW-K(Ac)-Pen*-AEF-2Nal-THP-K(Ac)-N-3Pya-Sar-CONH2 [Example 82] | 0.013

Row | Molecule | IC50 [nM]
18 | MeCO-K(PEG2PEG2gEC18OH)-Pen*-K(PEG2PEG2gEC18OH)-T-7MeW-K(Ac)-Pen*-AEF-2Nal-THP-K(Ac)-N-3Pya-Sar-CONH2 [Example 77] | 0.3
19 | MeCO-K(PEG2PEG2gEC18OH)-Pen*-N-T-7MeW-K(Ac)-Pen*-AEF-2Nal-THP-K(gEC18)-N-3Pya-Sar-CONH2 [Example 121] | 0.9
20 | MeCO-K(PEG2PEG2gEC18OH)-Pen*-N-T-7MeW-K(Ac)-Pen*-AEF-2Nal-THP-K(gEc16)-N-3Pya-Sar-CONH2 [Example 98] | 1.24
21 | MeCO-K(PEG2PEG2gEC20OH)-Pen*-K(PEG2PEG2gEC20OH)-T-7MeW-K(Ac)-Pen*-AEF-2Nal-THP-K(Ac)-N-3Pya-Sar-CONH2 [Example 78] | 0.23
22 | MeCO-K(PEG2PEG2gETrxC18OH)-Pen*-N-T-7MeW-K(Ac)-Pen*-AEF-2Nal-THP-K(Ac)-N-3Pya-Sar-CONH2 [Example 71] | 0.081
23 | MeCO-K(PEG2PEG2gETrxC20OH)-Pen*-N-T-7MeW-K(Ac)-Pen*-AEF-2Nal-THP-K(Ac)-N-3Pya-Sar-CONH2 [Example 72] | 0.11
24 | MeCO-K(PEG2PEG2gEmXOH)-Pen*-N-T-7MeW-K(Ac)-Pen*-AEF-2Nal-THP-K(Ac)-N-3Pya-Sar-CONH2 [Example 110] | 0.0096
25 | MeCO-K(PEG2PEG2gEmXOH)-Pen*-N-T-7MeW-K(Ac)-Pen*-AEF-2Nal-THP-K(gEC16)-N-3Pya-Sar-CONH2 [Example 113] | 1.11
26 | MeCO-K(PEG2PEG2gEpXOH)-Pen*-N-T-K(Ac)-Pen*-AEF-2Nal-THP-K(PEG2PEG2gEpXOH)-N-3Pya-Sar-CONH2 [Example 112] | 0.018
27 | MeCO-K(PEG2PEG2pgEC18OH)-Pen*-N-T-7MeW-K(Ac)-Pen*-AEF-2Nal-THP-K(Ac)-N-3Pya-Sar-CONH2 [Example 102] | 0.053
28 | MeCO-K(PEG2PEG2pppgEC18OH)-Pen*-N-T-7MeW-K(Ac)-Pen*-AEF-2Nal-THP-K(Ac)-N-3Pya-Sar-CONH2 [Example 104] | 0.066
29 | MeCO-K(PEG2gEC18OH)-Pen*-N-T-7MeW-K(Ac)-Pen*-AEF-2Nal-THP-K(Ac)-N-3Pya-N(4AmBenzyl)Gly-CONH2 [Example 86] | 0.061
30 | MeCO-K(PEG2gEC18OH)-Pen*-N-T-7MeW-K(Ac)-Pen*-AEF-2Nal-THP-K(Ac)-N-3Pya-Sar-CONH2 [Example 49] | 0.046
31 | MeCO-K(SP6 PEG2PEG2gE C18OH)-Pen*-N-T-7MeW-K(Ac)-Pen*-AEF-2Nal-THP-K(Ac)-N-3Pya-Sar-CONH2 [Example 132] | 0.031
32 | MeCO-K(gEC16)-Pen*-K(gEC16)-T-7MeW-K(Ac)-Pen*-AEF-2Nal-THP-K(Ac)-N-3Pya-Sar-CONH2 [Example 79] | 0.38
33 | MeCO-K(gEC16)-Pen*-N-T-7MeW-K(Ac)-Pen*-AEF-2Nal-THP-K(gEC18)-N-3Pya-Sar-CONH2 [Example 125] | 0.075

Same assay, conditions: HEK293 cells containing IL-23R, IL-12Rβ1 and STAT-inducible firefly luciferase reporter; 10 ng/mL IL-23 (EC90); 5 h at 37° C.; read-out: IC50

Row | IC50 [nM] | Molecule
34 | 0.12 | CCCCCCCCCCCCCCCC(=O)N[C@@H](CCC(=O)NCCCC[C@H](NC(=O)C1(NC(=O)[C@H](Cc2ccc3ccccc3c2)NC(=O)[C@H](Cc2ccc(OCCN)cc2)NC(=O)[C@H]2NC(=O)[C@H](CCCCNC(C)=O)NC(=O)[C@H](Cc3c[nH]c4c(C)cccc34)NC(=O)[C@H]([C@@H](C)O)NC(=O)[C@H](CC(N)=O)NC(=O)[C@@H](NC(=O)[C@H](CCCCNC(=O)COCCOCCNC(=O)COCCOCCNC(=O)CC[C@H](NC(=O)CCCCCCCCC(=O)O)C(=O)O)NC(C)=O)C(C)(C)SSC2(C)C)CCOCC1)C(=O)N[C@@H](CC(N)=O)C(=O)N[C@@H](Cc1cccnc1)C(=O)N(C)CC(N)=O)C(=O)O [Example 93, MeCO-K(PEG2PEG2gEC10OH)-Pen*-N-T-7MeW-K(Ac)-Pen*-AEF-2Nal-THP-K(gEC16)-N-3Pya-Sar-CONH2]
35 | 0.11 | CC(=O)NCCCC[C@@H]1NC(=O)[C@H](Cc2c[nH]c3c(C)cccc23)NC(=O)[C@H]([C@@H](C)O)NC(=O)[C@H](CCCCNC(=O)COCCOCCNC(=O)COCCOCCNC(=O)[C@H]2CCCN2C(=O)[C@H]2CCCN2C(=O)[C@H]2CCCN2C(=O)CC[C@H](NC(=O)CCCCCCCCCCCCCCCCC(=O)O)C(=O)O)NC(=O)[C@@H](NC(=O)[C@@H](CCCNC(=N)N)NC(C)=O)C(C)(C)SSC(C)(C)[C@@H](C(=O)N[C@@H](Cc2ccc(OCCN)cc2)C(=O)N[C@@H](Cc2ccc3ccccc3c2)C(=O)NC2(C(=O)N[C@@H](CCCCNC(C)=O)C(=O)N[C@@H](CC(N)=O)C(=O)N[C@@H](Cc3cccnc3)C(=O)N(C)CC(N)=O)CCOCC2)NC1=O [Example 100, MeCO-r-Pen*-K(PEG2PEG2pppgEC18OH)-T-7MeW-K(Ac)-Pen*-AEF-2Nal-THP-K(Ac)-N-3Pya-Sar-CONH2]
36 | 0.11 | CC(=O)NCCCC[C@@H]1NC(=O)[C@H](Cc2c[nH]c3c(C)cccc23)NC(=O)[C@H]([C@@H](C)O)NC(=O)[C@H](CC(N)=O)NC(=O)[C@@H](NC(C)=O)C(C)(C)SSC(C)(C)[C@@H](C(=O)N[C@@H](Cc2ccc(OCCN)cc2)C(=O)N[C@@H](Cc2ccc3ccccc3c2)C(=O)NC2(C(=O)N[C@@H](CCCCNC(=O)COCCOCCNC(=O)COCCOCCNC(=O)[C@H]3CCCN3C(=O)CC[C@H](NC(=O)CCCCCCCCCCCCCCCCC(=O)O)C(=O)O)C(=O)N[C@@H](CC(N)=O)C(=O)N[C@@H](Cc3cccnc3)C(=O)N(C)CC(N)=O)CCOCC2)NC1=O [Example 106, MeCO-Pen*-N-T-7MeW-K(Ac)-Pen*-AEF-2Nal-THP-K(PEG2PEG2pgEC18OH)-N-3Pya-Sar-CONH2]
37 | 0.058 | CC(=O)NCCCC[C@@H]1NC(=O)[C@H](Cc2c[nH]c3c(C)cccc23)NC(=O)[C@H]([C@@H](C)O)NC(=O)[C@H](CC(N)=O)NC(=O)[C@@H](NC(C)=O)C(C)(C)SSC(C)(C)[C@@H](C(=O)N[C@@H](Cc2ccc(OCCN)cc2)C(=O)N[C@@H](Cc2ccc3ccccc3c2)C(=O)NC2(C(=O)N[C@@H](CCCCNC(=O)COCCOCCNC(=O)C[N+](C)(C)CCNC(=O)COCCOCCNC(=O)CC[C@H](NC(=O)CCCCCCCCCCCCCCCCC(=O)O)C(=O)O)C(=O)N[C@@H](CC(N)=O)C(=O)N[C@@H](Cc3cccnc3)C(=O)N(C)CC(N)=O)CCOCC2)NC1=O [Example 119, MeCO-Pen*-N-T-7MeW-K(Ac)-Pen*-AEF-2Nal-THP-K(PEG2SP6PEG2gEC18OH)-N-3Pya-Sar-CONH2]
